Measured values taken from patent US20220257765A1, “TARGET-SPECIFIC CONJUGATE AND USE THEREFOR” (priority 2019, published 2022).

Assays:
MDAMB-468-luc cells = experiment: Cell proliferation inhibition activity (luciferase activity, survival rate), MDAMB-468-luc; format: cell-based, human; settings: HER2-negative MDAMB-468-luc cells
Description: (§1) 3T3/HER2-luc cells and MDAMB-468-luc cells each in an amount of 1×10^4 were individually seeded into a 24-well plate together with 1 ml of a medium. […] After 4 days, the luciferase activity was measured with a plate reader to assess the survival of HER2-negative cells.

3T3/HER2-luc cells = experiment: Cell proliferation inhibition activity (luciferase activity, survival rate), 3T3/HER2-luc; format: cell-based, mouse; settings: for antiproliferative effect: HER2-positive 3T3/HER2-luc cells, 4 days, no light
Description: as §1

MDA-MB-468-luc cells = experiment: In vitro NIR-PIT in mixed culture of 3T3/HER2 and MDA-MB-468-luc cells, luciferase activity; format: cell-based, human; settings: for amount of luminescence (RLU value) of luciferase activity: with NIR-PIT (690 nm, 4 J cm^2), 4 days after treatment
Description: 3T3/HER2 cells and MDA-MB-468-luc cells, each in an amount of 5×10^4, were mixed and seeded into a 12-well plate for mixed culture. […] Subsequently, the cells were washed with PBS twice and irradiated with near-infrared light (4 J cm^2) by using an LED with an emission wavelength of 690 nm. After 4 days from treatment, the luciferase activity of the cells were measured, and the effect of NIR-PIT was evaluated. The cells were washed with PBS before the measurement of luciferase activity, and D-luciferin (150 μg/ml, 200 μl) was added to the plate, followed by quantitatively measuring the luminescence intensity of the luciferase with a plate reader.

[1] = test system: 3T3/HER2 cells and MDAMB-468-luc cells mixed tumors; experiment: In vivo NIR-PIT, mixed 3T3/HER2 and MDAMB-468-luc subcutaneous tumors; set-up: species or system nude mice; settings: for luciferase activity of tumors (RLU value): T-DM1-IR700 3.6 μg/g i.v.
Description: 3T3/HER2 cells (5×10^6) and MDAMB-468-luc cells (1×10^7) were mixed in 150 μl of PBS, and transplanted subcutaneously into both dorsal buttocks of 8- to 10-week-old nude mice. The therapeutic effect of NIR-PIT was quantitatively evaluated by measuring the estimated tumor volume and the luciferase activity of tumors. The major axis and short axis of the tumors were measured, and the estimated tumor volume was calculated using “major axis×short axis^2×½.” Mice with an estimated tumor volume greater than 100 mm^3 were used for the experiment. The luciferase activity of tumors was measured by intraperitoneally administering D-luciferin (7.5 mg/mL, 200 ul), using an IVIS (registered trademark) imaging system. The unit of luminescence to be measured was radiance, and analysis was performed with Living Image Software (registered trademark). […] After four days from subcutaneous implantation of cells, NIR-PIT was performed using a laser (15 J cm^2 after one day from i.v., 30 J cm^2 after 2 days from i.v.). After treatment, measurement was continued until the major axis of the tumors exceeded 20 mm.

MDA-MB-468 = experiment: Binding properties of T-DM1-IR700, flow cytometry fluorescence, HER2-negative MDA-MB-468 cells; set-up: species or system human; settings: MDA-MB-468 (HER2-negative), incubated 37° C. 6 hours

Substance | antiproliferative effect (MDAMB-468-luc cells; 4 days) | antiproliferative effect (3T3/HER2-luc cells) | amount of luminescence (RLU value) of luciferase activity (MDA-MB-468-luc cells) | difference between group treated with NIR-PIT together with T-DM1-IR700 and group treated with T-DM1-IR700 alone ([1]; FIG. 7, 3.6 μg/g i.v.) | luciferase activity of tumors (RLU value) ([1]; left-side tumors without irradiation) | tumor volume ([1]; right side (irradiated) vs left side (not irradiated), T-DM1-IR700 i.v.) | luciferase activity of tumors (RLU value) ([1]; right-side tumors irradiated with a laser) | antiproliferative effect (MDAMB-468-luc cells; high concentration, 4 days) | antiproliferative effect (MDAMB-468-luc cells; normal concentrations at which side effects do not occur) | difference in IC50 between the two types of cells (3T3/HER2-luc cells; 3T3/HER2-luc vs MDAMB-468-luc) | fluorescence intensity by flow cytometry (MDA-MB-468) | luciferase activity (MDA-MB-468-luc cells; conjugate alone, without NIR-PIT, 1, 5 or 10 μg/mL)
Tra-IR700 [reference compound] | did not exhibit an antiproliferative effect | mild antiproliferative effect | not decreased | – | – | – | – | – | – | – | – | –
T-DM1 (Trastuzumab+N2′-Deacetyl-N2′-Maytansine)-IR700 [T-DM1-IR700] | – | exhibited an antiproliferative effect | significantly decreased | significant difference | not decreased | smaller than that on the left side | decreased | antiproliferative effect was also observed | no antiproliferative effect | 50 fold | did not show enhanced fluorescence | dose-dependent decrease
